Reference: patent US8207216B2, “Benzofuran-3-yl(indol-3-yl) maleimides as potent GSK3 inhibitors” (The Board of Trustees of the University of Illinois, priority 2006, dated 2012)

The chains behind the UniProt entries cited, without tags or fusion partners.
UniProt Q00526, whole entry, species assumed: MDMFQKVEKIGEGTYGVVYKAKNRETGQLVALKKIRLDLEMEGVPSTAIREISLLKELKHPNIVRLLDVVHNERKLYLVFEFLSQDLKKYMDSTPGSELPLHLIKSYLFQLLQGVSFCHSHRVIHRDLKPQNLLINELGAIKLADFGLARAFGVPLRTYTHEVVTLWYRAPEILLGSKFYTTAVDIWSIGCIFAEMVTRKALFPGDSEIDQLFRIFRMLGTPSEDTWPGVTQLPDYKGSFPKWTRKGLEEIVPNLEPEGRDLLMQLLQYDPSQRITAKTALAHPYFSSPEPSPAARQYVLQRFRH
UniProt Q00535, whole entry, species assumed: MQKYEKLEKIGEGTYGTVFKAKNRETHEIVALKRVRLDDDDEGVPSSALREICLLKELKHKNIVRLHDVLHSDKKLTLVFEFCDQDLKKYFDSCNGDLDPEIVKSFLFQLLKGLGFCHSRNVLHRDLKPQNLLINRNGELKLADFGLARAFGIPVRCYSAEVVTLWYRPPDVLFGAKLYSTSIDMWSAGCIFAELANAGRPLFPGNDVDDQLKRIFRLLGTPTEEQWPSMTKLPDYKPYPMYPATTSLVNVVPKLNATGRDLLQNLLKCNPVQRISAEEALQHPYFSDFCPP

Tests used:
CDK-2/cyclinE = CDK-2/cyclinE (Homo sapiens, UniProt P24941); assay: CDK-2/CyclinE inhibition (Reaction Biology); settings: selectivity ratio
CDK-3/cyclinE = CDK-3/cyclinE (Homo sapiens, UniProt Q00526); settings: 3rd data row; CDK-3/cyclinE by row order of Table 6A
HupT3 = assay: Antiproliferation MTS assay, pancreatic cancer cells; format: cell-based; settings: Homo sapiens
Procedure: (§1) The pancreatic cancer cell lines BxPc-3, HupT3, MiaPaCa-2, Panc 04.03, and SU86.86 were obtained from ATCC (Rockville, Md.) and were grown in medium (DMEM or RPMI) containing 10% fetal calf serum and L-glutamine. Pancreatic cancer cells were plated out in duplicate into 6-wells of a 96-well microtiter plate at 2.5−4×10^3 cells per well. Four-hours post plating, individual wells were treated with diluent (DMSO) or varying concentrations of commercial compounds, AR-A014418 and SB216763, or the indicated GSK inhibitors of this invention from a concentration of 1 nM to 50 microM. […] The IC50s were calculated using XLfit (IDBS Limited, Guildford, UK).

MIAPaCa-2 = assay: as above; format: cell-based; settings: Homo sapiens
Procedure: as §1

BXPC-3 = assay: as above; format: cell-based; settings: Homo sapiens
Procedure: as §1

CDK-5/P25 = CDK-5/P25 (Homo sapiens, UniProt Q00535); assay: CDK panel (Reaction Biology); format: biochemical
CDK-2/cyclinA = CDK-2/cyclinA (Homo sapiens, UniProt P24941); assay: CDK panel (Reaction Biology); format: biochemical; settings: 2nd data row; CDK-2/cyclinA by row order of Table 6A
CDK-5/P35 = CDK-5/P35 (Homo sapiens, UniProt Q00535); assay: CDK panel (Reaction Biology); format: biochemical
[1] = BXPC-3, as reported in Gaisina et al. (2009) J. Med. Chem. 52(7), 1853-1863
[2] = tested at Reaction Biology, Inc.

## Cn1cc(C2=C(c3coc4cc(CO)ccc34)C(=O)NC2=O)c2cc(F)ccc21 [Compound 7, 3-(5-Fluoro-1-methyl-1H-indol-3-yl)-4-(6-hydroxymethyl-benzofuran-3-yl)-pyrrole-2,5-dione]
CDK-2/cyclinE
  IC50 Ratio CDK-2/cyclinE GSK-3β: 670

## COCc1cccc2c(C3=C(c4coc5ccccc45)C(=O)NC3=O)cn(C)c12 [Compound 52, 3-Benzofuran-3-yl-4-(7-methoxymethyl-1-methyl-1H-indol-3-yl)-pyrrole-2,5-dione]
CDK-3/cyclinE
  IC50 Ratio (CDK/GSK-3β): 14700

## Cn1cc(C2=C(c3coc4ccc(F)cc34)C(=O)NC2=O)c2cc(I)ccc21 [Compound 29, 3-(5-Fluoro-benzofuran-3-yl)-4-(5-iodo-1-methyl-1H-indol-3-yl)-pyrrole-2,5-dione]
HupT3; HuP-T3, as reported in Gaisina et al. (2009) J. Med. Chem. 52(7), 1853-1863
  IC50: 42 ± 8.3 µM
HupT3; HuP-T3, 72 hrs, MTS
  IC50: 42 µM
MIAPaCa-2; MIA PaCa-2, as reported in Gaisina et al. (2009) J. Med. Chem. 52(7), 1853-1863
  IC50: 28 ± 4.1 µM
MIAPaCa-2; MIA PaCa-2, 72 hrs, MTS
  IC50: 28 µM
BXPC-3; [1]
  IC50: 42 ± 7.6 µM
BXPC-3; BXPC-3, 72 hrs, MTS
  IC50: 42 µM

## Cn1cc(C2=C(c3coc4ccccc34)C(=O)NC2=O)c2cc(I)ccc21 [Compound 28, 3-Benzofuran-3-yl-4-(5-iodo-1-methyl-1H-indol-3-yl)-pyrrole-2,5-dione]
BXPC-3; [1]
  IC50: 33 ± 4 µM
BXPC-3; BXPC-3, 72 hrs, MTS
  IC50: 33 µM

## Cn1cc(C2=C(c3coc4cc(CO)ccc34)C(=O)NC2=O)c2cc(F)c(Cl)cc21 [Compound 13, 3-(6-Chloro-5-fluoro-1-methyl-1H-indol-3-yl)-4-(6-hydroxymethyl-benzofuran-3-yl)-pyrrole-2,5-dione]
CDK-3/cyclinE
  IC50 Ratio (CDK/GSK-3β): 26400
CDK-5/P25; 5th data row, CDK-5/P25 by row order of Table 6A
  IC50 Ratio (CDK/GSK-3β): 19800
CDK-5/P25; [2]
  IC50: 18.9 µM
CDK-2/cyclinA
  IC50 Ratio (CDK/GSK-3β): 11100
CDK-5/P35; 6th data row, CDK-5/P35 by row order of Table 6A
  IC50 Ratio (CDK/GSK-3β): 16900
CDK-5/P35; [2]
  IC50: 16.1 µM
